Experimental data published in US9950026B2, “Methods for reducing oxidative damage” (Cornell Research Foundation, Inc., priority 2004, dated 2018).

Experiments:
[1] = Linoleic acid peroxidation induced by ABAP (conjugated dienes); conditions: peptides 100 μM
[2] = test system: Human LDL (low density lipoprotein); assay: LDL oxidation induced by CuSO4 (conjugated dienes); format: biochemical; conditions: peptides 100 μM
Method: Human LDL (low density lipoprotein) was prepared fresh from stored plasma. LDL oxidation was induced catalytically by the addition of […] CuSO4, and the formation of conjugated dienes was monitored at […] for 5 h at 37° C. (B. Moosmann and C. Behl, Mol Pharmacol., 61, 260-268 (2002)).

Substance | rate of linoleic acid peroxidation (slope of diene formation) [1] | rate of LDL oxidation (rate of formation of conjugated dienes) [2]
A[dR]FK-NH2 [SS-22] | With the exception of | –
Dmt-D-Arg-Phe-Ahp(2-aminoheptanoic acid)-NH2 [SS-32] | reduced the rate of linoleic acid peroxidation | reduced rate of LDL oxidation
Cyclohexyl-D-Arg-Phe-Lys-NH2 [SS-21] | With the exception of | –

Where no end group is shown, it is not given here. [ ]: non-standard residue; d: D form.
